Tested on: primary forebrain neurons
Assay: Live-Dead assay (propidium iodide / fluorescein diacetate)
Settings: 48 h; peroxide 75 μM, glutamate 25 μM, Aβ(1-42) 10 μM

Compound: CC(C)(C)OO [Peroxide, tert-butyl hydroperoxide]
- death among neurons compared to control: 46%
